Literature values, collected in patent US20240228927A1, “MICROFLUIDIC PLATFORM FOR DETECTION OF LIVER INJURY” (Javelin Biotech, Inc., priority 2023, published 2024).

Test system: liver
Conditions: liver toxicant of Table 1; cited from earlier work

For `O=C(O)Cc1ccccc1Nc1c(Cl)cccc1Cl` [Diclofenac], the Mechanism of toxicity is given as “Reactive”.
